Values of other authors in patent US8741373B2, “Compositions containing non-polar compounds” (Virun, Inc., priority 2010, dated 2014).

Details: reported HLB values of exemplary surfactants and co-surfactants (Table 1A)

Tocopherol polyethylene glycol succinate
HLB: 12-18
